For assay [1], the target named is human pol ι UBM2 L699A (human). Nature of the assay: ITC. For orientation: In ITC the heat of successive injections is recorded.
For assay [2], the target named is human pol ι UBM2 V695A (human). Briefly: ITC.

By Kd is commonly meant the concentration at which binding is half-saturated. A low value points to tighter binding.

Consider “human ubiquitin (from UniProt P0CG47 1-76) (natural protein)”, for which the dissociation constant (Kd) stood at 186 µM in assay [1] and 295 µM in assay [2].

The values above are taken from article PMC2841503.
